Measurements from publication PMC7613639, “Broad-spectrum chemicals block ROS detoxification to prevent plant fungal invasion” (Current biology : CB, 2022).

Sequences of proteins named here, by UniProt entry; tags and fusion partners are left off.
UniProt A0A384J7A0, entry or part of it: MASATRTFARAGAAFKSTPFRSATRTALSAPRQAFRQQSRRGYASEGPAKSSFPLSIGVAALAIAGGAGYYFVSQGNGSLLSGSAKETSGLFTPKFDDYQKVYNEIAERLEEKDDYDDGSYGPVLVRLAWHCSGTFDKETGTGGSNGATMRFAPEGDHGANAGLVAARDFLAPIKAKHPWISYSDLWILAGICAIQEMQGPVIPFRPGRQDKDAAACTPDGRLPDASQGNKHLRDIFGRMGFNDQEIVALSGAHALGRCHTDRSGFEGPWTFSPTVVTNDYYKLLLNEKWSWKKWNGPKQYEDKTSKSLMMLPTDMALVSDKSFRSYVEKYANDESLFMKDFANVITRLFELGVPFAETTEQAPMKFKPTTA

Biological target: T1, BcCcp1-His6 (Botrytis cinerea, UniProt A0A384J7A0)
T1 construct: putative catalytic H131
Experiment: peroxidase assay, absorbance at […] nm
Type: biochemical
Details: 20 mM ABTS, 50 mM sodium acetate pH 5.0, 25 °C, 5 min

SMILES: CCn1c(=NN=c2sc3cc(S(=O)(=O)O)ccc3n2CC)sc2cc(S(=O)(=O)O)ccc21 [ABTS]
- peroxidase assay, absorbance at 420 nm: His-tagged BcCcp1 purified from Escherichia coli indeed had peroxidase activity
